PubChem BioAssay (NCATS)
The list shows a part of the results, in another mix than the full data. Inconclusive results are not listed. The source made the active and inactive calls. Unless noted, the call rests on the fitted dose curve; in most records, active means well fitted curve in the direction sought with a large enough effect; inconclusive means small, poorly fitted or top-dose-only effect, or another doubt; inactive means no such curve, though single readings can be large; an effect the other way counts as inactive or inconclusive.

Chains of the proteins cited; added tags and fusions are not shown. Lines headed by an entry give the natural chain unless they say otherwise; changes in a name come on top.
UniProt P27695, whole entry, looked up: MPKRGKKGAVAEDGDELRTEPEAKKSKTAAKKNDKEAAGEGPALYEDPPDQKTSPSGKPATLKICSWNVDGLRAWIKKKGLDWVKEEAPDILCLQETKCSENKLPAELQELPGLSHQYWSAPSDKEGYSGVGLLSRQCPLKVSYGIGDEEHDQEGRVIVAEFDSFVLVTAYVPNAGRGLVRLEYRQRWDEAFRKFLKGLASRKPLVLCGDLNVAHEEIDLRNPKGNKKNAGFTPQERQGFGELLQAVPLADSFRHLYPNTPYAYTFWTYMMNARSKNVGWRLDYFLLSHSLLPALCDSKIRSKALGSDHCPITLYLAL
UniProt P02791: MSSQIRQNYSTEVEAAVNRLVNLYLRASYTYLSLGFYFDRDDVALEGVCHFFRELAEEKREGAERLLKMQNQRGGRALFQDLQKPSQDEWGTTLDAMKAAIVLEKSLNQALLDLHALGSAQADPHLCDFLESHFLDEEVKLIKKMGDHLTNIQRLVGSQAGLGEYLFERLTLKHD
UniProt P46063: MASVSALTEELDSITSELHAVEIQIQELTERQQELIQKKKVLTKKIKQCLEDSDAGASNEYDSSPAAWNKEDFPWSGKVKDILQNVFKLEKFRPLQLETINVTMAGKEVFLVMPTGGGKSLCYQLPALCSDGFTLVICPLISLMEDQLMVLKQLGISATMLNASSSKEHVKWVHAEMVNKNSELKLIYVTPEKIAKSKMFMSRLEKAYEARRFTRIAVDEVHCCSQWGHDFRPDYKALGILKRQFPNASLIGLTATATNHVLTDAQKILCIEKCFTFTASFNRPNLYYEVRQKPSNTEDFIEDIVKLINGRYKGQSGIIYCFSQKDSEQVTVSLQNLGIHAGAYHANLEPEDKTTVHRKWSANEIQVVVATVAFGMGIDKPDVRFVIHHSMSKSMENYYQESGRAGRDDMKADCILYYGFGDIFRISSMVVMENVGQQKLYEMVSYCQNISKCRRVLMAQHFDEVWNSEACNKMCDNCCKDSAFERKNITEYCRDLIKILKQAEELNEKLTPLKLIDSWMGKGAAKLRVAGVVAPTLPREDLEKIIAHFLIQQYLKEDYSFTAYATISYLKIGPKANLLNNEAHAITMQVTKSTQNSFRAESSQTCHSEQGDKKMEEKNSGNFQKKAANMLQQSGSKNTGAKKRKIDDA
UniProt O89049, whole entry, looked up: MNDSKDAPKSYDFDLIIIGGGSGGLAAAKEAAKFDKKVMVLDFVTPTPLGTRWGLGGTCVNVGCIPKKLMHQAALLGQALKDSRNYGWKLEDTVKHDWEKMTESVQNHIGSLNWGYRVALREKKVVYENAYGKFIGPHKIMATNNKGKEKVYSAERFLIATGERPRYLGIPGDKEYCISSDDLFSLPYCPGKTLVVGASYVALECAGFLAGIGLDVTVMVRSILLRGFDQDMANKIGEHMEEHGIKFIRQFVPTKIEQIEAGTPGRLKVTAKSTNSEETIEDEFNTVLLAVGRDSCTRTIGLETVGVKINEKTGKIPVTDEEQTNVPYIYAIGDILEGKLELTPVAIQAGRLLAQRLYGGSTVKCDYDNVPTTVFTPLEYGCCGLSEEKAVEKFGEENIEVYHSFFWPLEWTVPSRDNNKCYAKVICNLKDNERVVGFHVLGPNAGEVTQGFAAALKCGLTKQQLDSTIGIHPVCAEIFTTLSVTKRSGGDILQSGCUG
UniProt P39748, whole entry, looked up: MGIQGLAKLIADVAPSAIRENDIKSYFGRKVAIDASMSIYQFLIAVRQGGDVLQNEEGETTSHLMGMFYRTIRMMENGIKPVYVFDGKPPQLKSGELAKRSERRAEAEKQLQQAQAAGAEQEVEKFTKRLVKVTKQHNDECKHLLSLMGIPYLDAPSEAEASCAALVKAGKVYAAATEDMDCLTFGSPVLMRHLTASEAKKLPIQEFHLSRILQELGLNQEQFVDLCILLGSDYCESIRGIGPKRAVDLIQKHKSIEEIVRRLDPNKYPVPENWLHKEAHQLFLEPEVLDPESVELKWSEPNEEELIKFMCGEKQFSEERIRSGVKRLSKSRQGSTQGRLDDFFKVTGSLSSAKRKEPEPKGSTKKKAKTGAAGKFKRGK
UniProt Q99549: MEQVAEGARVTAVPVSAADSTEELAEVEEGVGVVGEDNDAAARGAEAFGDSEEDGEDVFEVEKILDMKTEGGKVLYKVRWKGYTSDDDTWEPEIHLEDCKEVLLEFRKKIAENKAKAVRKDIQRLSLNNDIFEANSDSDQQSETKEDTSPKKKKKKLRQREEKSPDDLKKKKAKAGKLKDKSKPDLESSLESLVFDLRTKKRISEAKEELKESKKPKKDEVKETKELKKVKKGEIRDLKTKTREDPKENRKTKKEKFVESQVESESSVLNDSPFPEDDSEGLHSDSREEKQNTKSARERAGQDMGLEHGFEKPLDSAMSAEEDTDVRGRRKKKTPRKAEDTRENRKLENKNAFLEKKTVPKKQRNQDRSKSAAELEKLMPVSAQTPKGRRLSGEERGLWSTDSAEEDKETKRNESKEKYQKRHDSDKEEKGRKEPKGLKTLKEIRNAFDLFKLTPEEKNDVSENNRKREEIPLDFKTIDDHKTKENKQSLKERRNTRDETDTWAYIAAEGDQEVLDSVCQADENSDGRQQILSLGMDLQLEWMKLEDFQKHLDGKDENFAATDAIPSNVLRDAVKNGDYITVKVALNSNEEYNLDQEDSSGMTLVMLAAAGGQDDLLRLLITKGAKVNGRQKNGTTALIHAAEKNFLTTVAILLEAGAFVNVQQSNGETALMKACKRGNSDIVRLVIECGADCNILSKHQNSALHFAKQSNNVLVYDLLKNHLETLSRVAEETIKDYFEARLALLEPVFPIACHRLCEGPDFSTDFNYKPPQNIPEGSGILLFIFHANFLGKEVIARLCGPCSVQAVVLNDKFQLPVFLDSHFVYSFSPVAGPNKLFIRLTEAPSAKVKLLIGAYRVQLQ
UniProt P83916, whole entry, looked up: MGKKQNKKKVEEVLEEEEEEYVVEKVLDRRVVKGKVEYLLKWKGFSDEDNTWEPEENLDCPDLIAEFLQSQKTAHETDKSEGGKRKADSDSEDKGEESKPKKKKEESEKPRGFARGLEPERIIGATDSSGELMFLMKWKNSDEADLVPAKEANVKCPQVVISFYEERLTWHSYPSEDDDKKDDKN
UniProt Q6LX38: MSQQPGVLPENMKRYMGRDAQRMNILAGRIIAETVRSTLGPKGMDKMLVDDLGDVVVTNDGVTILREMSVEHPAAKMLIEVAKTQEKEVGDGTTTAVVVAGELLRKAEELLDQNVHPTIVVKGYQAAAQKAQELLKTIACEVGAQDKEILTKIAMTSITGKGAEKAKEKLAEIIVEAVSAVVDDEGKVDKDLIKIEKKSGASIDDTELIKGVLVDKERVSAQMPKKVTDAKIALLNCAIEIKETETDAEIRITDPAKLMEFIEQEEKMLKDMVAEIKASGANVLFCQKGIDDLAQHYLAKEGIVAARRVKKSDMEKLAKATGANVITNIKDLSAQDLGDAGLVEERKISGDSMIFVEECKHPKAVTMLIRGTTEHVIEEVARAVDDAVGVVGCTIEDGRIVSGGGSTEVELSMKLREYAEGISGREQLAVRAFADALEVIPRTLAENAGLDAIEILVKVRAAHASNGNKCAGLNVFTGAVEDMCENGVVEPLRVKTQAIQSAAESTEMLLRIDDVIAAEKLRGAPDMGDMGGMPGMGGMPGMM
UniProt P21728, whole entry, looked up: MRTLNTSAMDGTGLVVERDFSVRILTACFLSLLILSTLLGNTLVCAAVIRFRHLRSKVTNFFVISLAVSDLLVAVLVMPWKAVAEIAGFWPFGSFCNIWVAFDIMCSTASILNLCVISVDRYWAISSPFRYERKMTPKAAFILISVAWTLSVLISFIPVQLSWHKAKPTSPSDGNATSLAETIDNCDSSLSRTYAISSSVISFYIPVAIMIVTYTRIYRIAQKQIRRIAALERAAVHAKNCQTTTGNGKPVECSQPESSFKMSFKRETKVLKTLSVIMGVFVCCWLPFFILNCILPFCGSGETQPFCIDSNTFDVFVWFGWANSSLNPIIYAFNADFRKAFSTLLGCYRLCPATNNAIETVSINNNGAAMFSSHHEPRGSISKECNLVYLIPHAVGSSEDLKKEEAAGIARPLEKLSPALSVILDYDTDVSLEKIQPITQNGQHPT
UniProt Q96QE3: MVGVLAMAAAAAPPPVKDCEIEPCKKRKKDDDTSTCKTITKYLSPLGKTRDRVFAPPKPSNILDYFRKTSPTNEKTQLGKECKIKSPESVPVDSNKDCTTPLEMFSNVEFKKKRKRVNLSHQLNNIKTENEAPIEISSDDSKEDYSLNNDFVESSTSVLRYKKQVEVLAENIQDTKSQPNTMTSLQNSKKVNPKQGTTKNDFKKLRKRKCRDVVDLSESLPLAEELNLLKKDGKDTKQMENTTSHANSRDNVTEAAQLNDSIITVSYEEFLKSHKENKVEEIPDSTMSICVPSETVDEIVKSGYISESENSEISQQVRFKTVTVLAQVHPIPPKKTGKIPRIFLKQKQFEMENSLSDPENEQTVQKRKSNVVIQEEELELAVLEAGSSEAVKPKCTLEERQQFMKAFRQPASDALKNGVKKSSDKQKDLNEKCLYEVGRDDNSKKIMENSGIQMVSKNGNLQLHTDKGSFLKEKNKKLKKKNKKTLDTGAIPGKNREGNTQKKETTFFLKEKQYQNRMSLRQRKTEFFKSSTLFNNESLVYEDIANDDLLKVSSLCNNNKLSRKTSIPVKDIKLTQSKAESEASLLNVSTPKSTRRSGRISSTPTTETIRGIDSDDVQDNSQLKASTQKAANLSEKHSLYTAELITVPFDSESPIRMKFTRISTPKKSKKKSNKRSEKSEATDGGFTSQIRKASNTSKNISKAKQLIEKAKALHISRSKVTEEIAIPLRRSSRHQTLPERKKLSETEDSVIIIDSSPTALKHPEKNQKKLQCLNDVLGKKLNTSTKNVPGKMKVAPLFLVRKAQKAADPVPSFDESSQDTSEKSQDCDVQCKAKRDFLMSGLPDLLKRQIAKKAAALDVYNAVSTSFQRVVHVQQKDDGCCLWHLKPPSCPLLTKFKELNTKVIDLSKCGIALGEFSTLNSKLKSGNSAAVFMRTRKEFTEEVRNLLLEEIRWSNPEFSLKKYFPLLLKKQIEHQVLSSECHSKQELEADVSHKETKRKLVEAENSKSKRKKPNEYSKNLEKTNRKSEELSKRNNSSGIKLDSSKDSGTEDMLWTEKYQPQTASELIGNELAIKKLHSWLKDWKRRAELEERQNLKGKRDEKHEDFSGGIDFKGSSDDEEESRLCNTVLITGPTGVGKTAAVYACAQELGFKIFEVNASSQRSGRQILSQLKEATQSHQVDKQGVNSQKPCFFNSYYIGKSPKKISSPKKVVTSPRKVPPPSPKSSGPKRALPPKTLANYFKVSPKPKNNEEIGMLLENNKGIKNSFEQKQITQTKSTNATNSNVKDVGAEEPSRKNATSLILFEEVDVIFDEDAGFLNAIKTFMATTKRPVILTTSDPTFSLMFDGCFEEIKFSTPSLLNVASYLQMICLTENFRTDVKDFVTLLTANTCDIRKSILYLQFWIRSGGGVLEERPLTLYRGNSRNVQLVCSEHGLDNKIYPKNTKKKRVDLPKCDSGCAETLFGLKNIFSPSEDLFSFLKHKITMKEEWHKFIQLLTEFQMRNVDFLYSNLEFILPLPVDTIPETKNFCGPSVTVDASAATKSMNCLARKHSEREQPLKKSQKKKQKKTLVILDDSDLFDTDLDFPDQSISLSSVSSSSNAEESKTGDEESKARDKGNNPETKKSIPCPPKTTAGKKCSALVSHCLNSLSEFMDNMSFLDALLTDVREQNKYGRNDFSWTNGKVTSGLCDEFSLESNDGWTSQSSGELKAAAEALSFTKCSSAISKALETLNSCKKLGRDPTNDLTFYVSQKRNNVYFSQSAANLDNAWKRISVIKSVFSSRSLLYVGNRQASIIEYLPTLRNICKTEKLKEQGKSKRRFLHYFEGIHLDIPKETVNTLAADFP
UniProt P51570: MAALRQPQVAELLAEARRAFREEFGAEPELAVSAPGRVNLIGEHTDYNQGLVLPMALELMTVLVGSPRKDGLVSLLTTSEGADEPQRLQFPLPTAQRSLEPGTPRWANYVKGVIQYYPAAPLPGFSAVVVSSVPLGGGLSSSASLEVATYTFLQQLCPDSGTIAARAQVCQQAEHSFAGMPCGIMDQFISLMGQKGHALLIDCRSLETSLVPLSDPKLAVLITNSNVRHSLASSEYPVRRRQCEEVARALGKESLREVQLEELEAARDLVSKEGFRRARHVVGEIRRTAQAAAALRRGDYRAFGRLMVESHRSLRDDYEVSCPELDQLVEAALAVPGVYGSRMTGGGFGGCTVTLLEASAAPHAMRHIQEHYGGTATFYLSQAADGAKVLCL

Experiments:
[1] = Validation of Assay for Modulators of Lamin A Splicing (AID 1459; active means well fitted curve in the direction sought with a large enough effect in the signal ratio; the % refers to the signal ratio;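 further: cells exposed to compound for two days before reading; 0% is about no effect; ratio rise marks activators and ratio drop marks inhibitors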); conditions: Lamin A splicing dual RFP/GFP fluorescence reporter; at 9.22 µM (top of the series)
How it was run: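 Splicing correction is reported by an EGFP-containing lamin A minigene in stably transfected S3 HeLa cells, while DsRed2 controls for viability and nonspecific signal. Cells are exposed to compounds for 48 hrs before the GFP over RFP ratio is taken.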

[2] = qHTS Assay for Lipid Storage Modulators (AID 1519; calls by dose curve; further: on the % scale 0 is the no-effect control and ±100 the full control effect); conditions: Drosophila S3 cells, BODIPY lipid droplet/cell ratio, laser cytometry, cells loaded with oleic acid; at 57.5 µM (top of the series)
[3] = target: DNA repair nuclease/redox regulator APEX1 (Homo sapiens) (UniProt P27695); assay: qHTS Validation Assay for Inhibitors of the Human Apurinic/apyrimidinic Endonuclease 1 (APE1) (AID 1705;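 further: TAMRA fluorescence gain over two minutes as APE1 cuts a quenched THF abasic duplex; on the % scale 0 is the no-effect control and ±100 the full control effect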); conditions: purified APE1 endonuclease activity, fluorescence, titration; at 57.1 µM (top of the series)
How it was run: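 Endonuclease activity of human APE1 is followed as dequenching when the enzyme incises a tetrahydrofuran abasic site in a short duplex labelled 5'-TAMRA/3'-BHQ-2 (50 nM final), after 15 min enzyme–compound preincubation at room temperature.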

[4] = Counterscreen for APE1 Inhibitors: Fluorescent Dye Displacement Validation Assay (AID 1707); conditions: fluorescent dye displacement from DNA; at 57.1 µM (top of the series);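 further: plate controls were ThO with dsDNA and no compound for no effect and ThO without dsDNA for full effect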
How it was run: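 Reaction mixture of 250 nM Thiazole Orange and 50 nM double-stranded abasic-site DNA was dispensed, compounds were pin-transferred, and fluorescence was read at endpoint (480 nm ex, 540 nm em). Reduced fluorescence indicated dye displacement by DNA binding.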

[5] = target: Ferritin light chain (Equus caballus) (UniProt P02791); assay: qHTS Validation Assay for Identification of Novel General Anesthetics (AID 2323); conditions: horse apoferritin, anesthetic-site fluorescent probe displacement; at 76.9 µM (top of the series); further: on the % scale 0 is the no-effect control and ±100 the full control effect
How it was run: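 Apoferritin from horse spleen (10 uM) was mixed with 1-aminoanthracene at 50% saturation in PBS, then compounds were added. After 10 min at room temperature, fluorescence was read (ex 380 nm, em 535 nm) and normalized to free-probe and complex controls.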

[6] = target: ATP-dependent DNA helicase Q1 (Homo sapiens) (UniProt P46063); assay: qHTS Validation Assay for Inhibitors of RecQ-Like Dna Helicase 1 (RECQ1) (AID 2353); conditions: recombinant RECQ1 helicase DNA unwinding assay; at 25.6 µM (top of the series);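 further: plate controls were DMSO vehicle for no effect and enzyme-free control for full effect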
How it was run: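 RECQ1T1 50 nM; forked duplex (20 bp + 30-nt ss tails) 200 nM, ATP 2 mM final; pH 8.0, 2 mM MgCl2, 2.5 ug/ml poly(dI-dC); 15 min compound preincubation; discontinuous kinetic read over 2 h at RT.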

[7] = target: RecQ-like DNA helicase BLM (Homo sapiens) (UniProt P54132); assay: qHTS Validation Assay for Inhibitors of Bloom's syndrome helicase (BLM) (AID 2364); conditions: BLM helicase DNA unwinding, fluorescence, in vitro; at 57.1 µM (top of the series);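 further: plate controls were DMSO vehicle for no effect and enzyme-free control for full effect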
[8] = Cytometric Cell-Based qHTS for Inhibitors of the mTORC1 Signaling Pathway in MEF (Tsc2-/-, p53-/-) Cells (AID 2660); conditions: mTORC1 pathway cytometry; at 38.3 µM (top of the series);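 further: percent of cells above a phospho-rpS6 to PI ratio cutoff in each well; plate controls were DMSO for no effect and rapamycin for full effect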
How it was run: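 Tsc2-/-, p53-/- MEFs (empty vector) exposed to compound 24 h at 37 C, fixed, stained with Alexa-488 anti-phospho-rpS6 Ser235/236 and propidium iodide. Acumen laser scanning; phospho-S6/PI ratio thresholded against 7.5 nM rapamycin, reported as % positive cells.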

[9] = High Content Imaging Cell-Based qHTS for Inhibitors of the mTORC1 Signaling Pathway in MEF (Tsc2-/-, p53-/-) Cells (AID 2666); conditions: at 38.3 µM (top of the series);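 further: percent of cells scored positive for phospho-rpS6 Ser235/236 immunostaining by imaging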
How it was run: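 Tsc2-/-, p53-/- MEFs (empty-vector stable) grown in DMEM + 10% FBS were exposed to compounds for 24 hrs at 37 degree Celsius, fixed, and stained with Alexa-488 anti-phospho-rpS6 Ser235/236 plus Hoechst. Imaging gave the percentage of positive cells per well.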

[10] = High Content Imaging Cell-Based qHTS for Inhibitors of the mTORC1 Signaling Pathway in MEF Cells (AID 2667); conditions: at 38.3 µM (top of the series);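 further: Tsc2-/- p53-/- MEFs stably re-expressing wild-type Tsc2 exposed 24 h; plate controls were DMSO wells for no effect and rapamycin control wells for full effect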
How it was run: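 Tsc2-/-, p53-/- MEFs stably re-expressing WT Tsc2, grown in DMEM + 10% FBS, were treated with compounds for 24 hrs at 37 degree Celsius, fixed, and stained with Alexa-488 phospho-rpS6 Ser235/236 antibody plus Hoechst; results given as % positive cells.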

[11] = Cytometry Cell-Based qHTS for Inhibitors of the mTORC1 Signaling Pathway in MEF cells (AID 2668); conditions: mTORC1 pathway readout; at 38.3 µM (top of the series);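 further: Tsc2-/- p53-/- mouse embryonic fibroblasts stably re-expressing wild-type Tsc2; percent cells positive for phospho-rpS6 Ser235/236 relative to propidium iodide stain; plate controls were DMSO wells for no effect and 7.5 nM rapamycin control wells for full effect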
How it was run: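 Pathway inhibition in WT Tsc2-rescued Tsc2-/-, p53-/- MEFs is measured as the Alexa-488 phospho-rpS6 to propidium iodide intensity ratio after 24 hrs of compound at 37 degree Celsius. PI-stained cell number gives viability.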

[12] = Validation screen for small molecules that induce DNA re-replication in MCF 10A normal breast cells (AID 463097); conditions: MCF 10A cells, DNA re-replication phenotype imaging; at 46.1 µM (top of the series); further: 0% is about no effect; nearly all actives have a fitted effect of over 60% in size
How it was run: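 DNA re-replication was detected as a rise in nuclei with elevated Hoechst fluorescence after a 48 hr compound exposure of MCF 10A cells at 37 C.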

[13] = target: Ubiquitin carboxyl-terminal hydrolase 2 (Homo sapiens) (UniProt O75604); assay: qHTS Validation Assay for Inhibitors of Ubiquitin-specific Protease USP2a Using CHOP2 as the Reporter (AID 463106); conditions: USP2a cleavage of CHOP2 reporter, enzymatic; at 38.3 µM (top of the series);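 further: plate controls were DMSO for no effect and full inhibition by NEM for full effect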
How it was run: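 Readout was coupled fluorescence (Ex 485/Em 531 nm), read 60 min after adding 25 nM final Ub-CHOP2 and 25 nM reporter substrate. Beforehand, 10 nM final USP2 core had 30 min at RT with compound in pH 8.0 buffer. Curves were fitted after normalization to NEM and flagged for artifacts using time-zero reads.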

[14] = target: Beta-2 adrenergic receptor (Homo sapiens) (UniProt P07550); assay: qHTS validation assay of beta-arrestin-biased ligands of beta2-adrenergic receptor (AID 485366); conditions: cell-based beta-arrestin recruitment to ADRB2, qHTS; at 46.1 µM (top of the series); further: 0% is about no effect
How it was run: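 qHTS, Tango cells, 1500 cells/well, DMEM + 1% FBS. Cpd 18 hr at 37 degrees C. Luciferin/ATP/CoA detection mix, 15 min RT, luminescence read. %Activity from corrected signal; CRC fit, curve class.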

[15] = target: Thioredoxin reductase 1, cytoplasmic (Rattus norvegicus) (UniProt O89049); assay: qHTS Assay for Inhibitors of Mammalian Selenoprotein Thioredoxin Reductase 1 (TrxR1) (AID 488773); conditions: purified TrxR1 enzyme activity; at 57.1 µM (top of the series);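 further: drop in NADPH fluorescence over an 8 min run after selenite addition; on the % scale 0 is the no-effect control and ±100 the full control effect; nearly all actives have a fitted effect of over 40% in size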
How it was run: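 Inhibition is scored from the loss of NADPH fluorescence between first and last reads of an 8-min kinetic run. Selenite (400 uM) was the substrate, added after 15 min compound preincubation at room temperature.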

[16] = target: Flap endonuclease 1 (Homo sapiens) (UniProt P39748); assay: qHTS Validation Assay for the Inhibitors of Human Flap endonuclease 1 (FEN1) (AID 488816); conditions: FEN1 nuclease activity, fluorogenic DNA substrate; at 57.1 µM (top of the series); further: on the % scale 0 is the no-effect control and ±100 the full control effect
How it was run: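 qHTS format: compounds and 10 nM FEN1 incubated 15 min at room temperature before adding 50 nM substrate. Cleavage followed by reads at 0 and 15 min; normalized data fitted to a four-parameter Hill curve.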

[17] = target: M-phase phosphoprotein 8 (Homo sapiens) (UniProt Q99549); assay: qHTS Validation Assay for Inhibitors for MPP8 Chromodomain Interactions with Methylated Histone Tails (AID 488949); conditions: AlphaScreen MPP8 binding to H3K9me3 peptide;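 further: AlphaScreen signal from MPP8 chromodomain bound to biotinylated H3K9me3 peptide; top concentration of the series differs between compounds; on the % scale 0 is the no-effect control and ±100 the full control effect; nearly all actives have a fitted effect of over 55% in size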
How it was run: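 Disruption of the preformed MPP8–trimethyl-H3K9 peptide complex (both 50 nM, 30 min, RT) is measured after 30 min compound exposure, using AlphaScreen proximity beads; aurintricarboxylic acid titration serves as plate control.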

[18] = target: Chromobox protein homolog 1 (Homo sapiens) (UniProt P83916); assay: qHTS Validation Assay for Inhibitors of HP1-beta Chromodomain Interactions with Methylated Histone Tails (AID 488953); conditions: HP1-beta chromodomain / methylated histone peptide binding assay; at 114 µM (top of the series);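 further: loss of AlphaScreen luminescence from HP1-beta binding biotinylated H3K9me3 peptide; on the % scale 0 is the no-effect control and ±100 the full control effect; nearly all actives have a fitted effect of over 50% in size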
[19] = target: Methanococcus maripaludis chaperonin (MmCpn) (UniProt Q6LX38); assay: High-Throughput Screening for Modulators of Cytosolic Chaperonin Activity: MmCpn Primary Screen (AID 488978); conditions: MmCpn chaperonin refolding activity, biochemical qHTS; at 76.9 µM (top of the series);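 further: 50 nM MmCpn enzyme hydrolysing 30 µM ATP at 37 °C; 0% is about no effect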
How it was run: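 Measures ATPase turnover of the M. maripaludis chaperonin (50 nM final) against 30 uM ATP over 10 min at 37C, with compound added 5 min beforehand at room temperature. ADP is quantified by HTRF immunodetection.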

[20] = target: Transient receptor potential cation channel subfamily V member 1 (Homo sapiens) (UniProt Q8NER1); assay: HTS Assay for Compounds that Act as Enhancers of the Vanilloid Receptor 1 (AID 488979); conditions: TRPV1-expressing cells, enhancer of channel activity, stimulated with capsaicin at EC20; at 41.7 µM (top of the series); further: 0% is about no effect
How it was run: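 Calcium influx kinetics via Fluo-8 (480/520 nm) in TRPV1-expressing cells, 2000/well cultured overnight at 35.5C. Compound-alone read 3 min (agonist phase), followed by EC20 capsaicin challenge for 2 min (enhancer phase).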

[21] = target: D(1A) dopamine receptor (Homo sapiens) (UniProt P21728); assay: HTS Assay for Allosteric Agonists of the Human D1 Dopamine Receptor: Primary Screen for Agonists (AID 488981); conditions: D1 receptor-expressing cells, agonist cAMP readout; at 41.8 µM (top of the series); further: 0% is about no effect
How it was run: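 Calcium flux in an inducible, force-coupled HEK293 Trex D1 line (overnight at 30 C): agonist mode is the 180 s kinetic read after compound; potentiator mode is the following 180 s read after dopamine at EC20.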

[22] = target: D(1A) dopamine receptor (Homo sapiens) (UniProt P21728); assay: HTS Assay for Allosteric Agonists of the Human D1 Dopamine Receptor: Primary Screen for Potentiators (AID 488982); conditions: D1 receptor cells, potentiator mode, cAMP signal; at 8.37 µM (top of the series); further: 0% is about no effect
[23] = target: D(1A) dopamine receptor (Homo sapiens) (UniProt P21728); assay: HTS Assay for Allosteric Agonists of the Human D1 Dopamine Receptor: Primary Screen for Antagonists (AID 488983); conditions: D1 receptor cell assay, antagonist mode, qHTS titration; at 41.8 µM (top of the series);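 further: calcium flux response to an EC80 dopamine challenge measured with no-wash dye; on the % scale 0 is the no-effect control and ±100 the full control effect; nearly all actives have a fitted effect of over 65% in size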
[24] = Validation screen for small molecules that induce genotoxicity in human embryonic kidney (HEK293T) cells expressing luciferase-tagged ELG1 (AID 493106); conditions: luminescence; at 46.1 µM (top of the series); further: 0% is about no effect
How it was run: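 Cells were dispensed at 2,000 per well, then 23 nL compound or DMSO was pinned in. After 16 hr at 37 °C and 5% CO2, ONE-Glo reagent was added. Luciferase activity was measured following 30 min at room temperature.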

[25] = target: ATPase family AAA domain-containing protein 5 (Homo sapiens) (UniProt Q96QE3); assay: Validation screen for small molecules that inhibit ELG1-dependent DNA repair in human embryonic kidney (HEK293T) cells expressing luciferase-tagged ELG1 (AID 493107); conditions: HEK293T ELG1-luciferase level, luminescence, 5-fluorouridine co-treatment, 16 h; at 46.1 µM (top of the series);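 further: cells co-treated with the DNA-damaging agent 5-fluorouridine alongside compound; on the % scale 0 is the no-effect control and ±100 the full control effect; inhibitors lower the ELG1-luciferase luminescence signal; nearly all actives have a fitted effect of over 70% in size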
How it was run: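 Cells are dispensed in 1536-well format, then 5-fluorouridine and compound are pinned in. After a 16 hr incubation at 37 °C and 5% CO2, ONE-Glo is added and luciferase measured on a CCD imager.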

[26] = target: Thyrotropin-releasing hormone receptor (Homo sapiens) (UniProt P34981); assay: qHTS for Small Molecule Agonists and Allosteric Enhancers of Human TRH Receptor: Validation Screen for Agonists (AID 493127;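 active means calcium activation more than 3 SD above the typical response in the agonist read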;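 further: intracellular calcium rise by fluo-8 fluorescence before TRH EC20 addition; 0% is about no effect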); conditions: TRH receptor agonist cell assay; at 2 µM; stronger effect = higher value
How it was run: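 Compounds are added by online pintool to dye-loaded TRHR cells while fluorescence is recorded every second. A rise in calcium signal during the agonist read marks activation; a later 10 nM TRH addition (EC20) serves the separate enhancer mode.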

[27] = Nrf2 qHTS screen for inhibitors: Validation (AID 493153; active means well fitted inhibition curve with a large enough effect in the main read-out, with a control signal flat, not every such curve was filed as active;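 further: A549 cells with ARE-driven firefly luciferase reporter reporting Nrf2 activity; % of control where 0% means no effect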); conditions: A549 ARE-Fluc reporter, luciferase luminescence, 18-24 h; at 46.1 µM (top of the series)
[28] = qHTS for Inhibitors of Cell Surface uPA Generation: Validation Assay (AID 493164); conditions: mouse cells, plasminogen activation; at 38.3 µM (top of the series);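 further: RAW 264.7 macrophage cells exposed to compound for 18 h; 0% is about no effect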
How it was run: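 ATP-Lite luminescence read-out: ATP remains high when uPA activity-dependent LF translocation into the cytoplasm is blocked. RAW 264.7 cells, 18 h compound exposure at 37 C; 7-point titration, 2.45 nM to 38.3 uM final.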

[29] = target: Galactokinase (Homo sapiens) (UniProt P51570); assay: qHTS Validation Assay for Inhibitors of Human Galactokinase (GALK) (AID 493189); conditions: purified human GALK enzyme activity, qHTS 7-point titration; at 57.5 µM (top of the series); further: 0% is about no effect
How it was run: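 Compounds were pin-transferred into ATP buffer, then GALK-galactose mix was added (final 5 nM enzyme, 100 uM galactose, 35 uM ATP). After 1 h at room temperature, remaining ATP was measured luminescently.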

CN(C(=O)Cc1ccc(Cl)c(Cl)c1)[C@@H]1CC[C@]2(CCCO2)C[C@H]1N1CCCC1
inactive: ratio change, both ways [1] 2.6% | activity change, negative = inhibition [2] -0.5% | activity change, negative = inhibition [3] -12.4% | activity change, negative = inhibition [4] 2.78% | activity change, negative = inhibition [5] -10.4% | activity change, negative = inhibition [6] -3.78% | activity change, negative = inhibition [7] -9.2% | activity change, negative = inhibition [8] -0.152% | outcome [9] | activity change, negative = inhibition [10] -100% | activity change, negative = inhibition [11] -3.64% | re-replication induction [12] 3.06% | activity, negative = inhibition [13] 3.62% | activation [14] 0.498% | activity change, negative = inhibition [15] 8.72% | activity, negative = inhibition [16] -8.56% | activity change, negative = inhibition ([17]; at 57.1 µM (top of the series)) 0.895% | activity change, negative = inhibition ([17]; at 114 µM (top of the series)) -5.19% | activity change, negative = inhibition [18] -10.9% | activity change, negative = inhibition [19] 0.648% | activity change, positive = enhancement [20] 24.6% | activation [21] 10% | activity, positive = potentiation [22] 13% | activity change, negative = inhibition [23] 3.21% | activity change, positive = ELG1 induction [24] -7.37% | activity change, negative = decrease [25] -5.22% | activation [26] 0.562% | activity change, negative = inhibition [27] 4.34% | activity change [28] -0.875% | activity change, negative = inhibition [29] 25.1%
